Here are results for 27 compounds from patent publication US9751885B2, “Cyclopropanamine compound and use thereof” (Takeda Pharmaceutical Company Limited, priority 2012, dated 2017).

The chains behind the UniProt entries cited, without tags or fusion partners.
UniProt P21397, whole entry: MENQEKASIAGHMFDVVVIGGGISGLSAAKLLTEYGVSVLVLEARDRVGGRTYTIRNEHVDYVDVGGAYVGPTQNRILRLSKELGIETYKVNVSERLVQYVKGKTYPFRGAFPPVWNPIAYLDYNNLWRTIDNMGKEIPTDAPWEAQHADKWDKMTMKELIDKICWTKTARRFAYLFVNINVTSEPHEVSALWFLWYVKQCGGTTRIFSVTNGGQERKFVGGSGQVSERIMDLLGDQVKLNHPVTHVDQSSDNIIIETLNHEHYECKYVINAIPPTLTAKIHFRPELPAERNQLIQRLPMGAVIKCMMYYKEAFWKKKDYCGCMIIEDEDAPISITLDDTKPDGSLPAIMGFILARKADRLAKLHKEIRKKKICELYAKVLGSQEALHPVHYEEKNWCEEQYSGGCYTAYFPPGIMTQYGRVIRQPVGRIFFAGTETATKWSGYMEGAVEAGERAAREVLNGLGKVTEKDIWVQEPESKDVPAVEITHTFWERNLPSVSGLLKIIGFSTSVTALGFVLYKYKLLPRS
UniProt P27338, whole entry: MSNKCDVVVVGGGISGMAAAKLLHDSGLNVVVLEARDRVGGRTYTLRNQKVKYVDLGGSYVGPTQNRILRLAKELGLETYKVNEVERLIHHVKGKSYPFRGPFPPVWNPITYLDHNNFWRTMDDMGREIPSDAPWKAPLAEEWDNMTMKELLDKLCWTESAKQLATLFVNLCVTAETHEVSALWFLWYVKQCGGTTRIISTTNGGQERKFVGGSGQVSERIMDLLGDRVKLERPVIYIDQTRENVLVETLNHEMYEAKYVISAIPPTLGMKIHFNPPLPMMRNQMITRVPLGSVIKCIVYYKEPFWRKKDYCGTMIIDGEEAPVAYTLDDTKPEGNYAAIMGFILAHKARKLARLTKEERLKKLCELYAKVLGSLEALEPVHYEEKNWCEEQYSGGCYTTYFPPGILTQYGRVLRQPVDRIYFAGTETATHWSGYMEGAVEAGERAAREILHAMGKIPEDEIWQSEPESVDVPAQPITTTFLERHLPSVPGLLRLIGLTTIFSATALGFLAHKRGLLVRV

The target of assay [1] is MAO-A enzyme (Homo sapiens (Human), UniProt P21397). Nature of the assay: Measurement of MAO-A inhibitory activity (MAO-Glo Assay). In kind it is biochemical.
Assay [2] has as its target MAO-B enzyme (Homo sapiens (Human), UniProt P27338). Nature of the assay: Measurement of MAO-B inhibitory activity (MAO-Glo Assay).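 Also: luminescence read-out, compound preincubated 10 min with enzyme then reacted 60 min at room temperature, inhibition relative to enzyme reaction without compound, blank lacking enzyme and compound.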 The settings on record: read-out: MAO-B IC50 value.

Molecules are shown by their SMILES. Structures can show the parent of a compound that is named as a salt. Bounds are passed on as bounds.

Regarding `Cn1cc(NC(=O)c2cccc([C@@H]3C[C@H]3N)c2)cn1` (relative stereo) [Example 55, 3-(trans-2-aminocyclopropyl)-N-(1-methyl-1H-pyrazol-4-yl)benzamide dihydrochloride], the IC50 in assay [1] and in assay [2] was above 10 µM in each case.

`Cn1cc(NC(=O)c2cccc([C@@H]3C[C@H]3NCC(C)(C)C)c2)cn1` (relative stereo) [Example 155, 3-(trans-2-((2,2-dimethylpropyl)amino)cyclopropyl)-N-(1-methyl-1H-pyrazol-4-yl)benzamide dihydrochloride]: the IC50 in assay [1] and in assay [2] was above 10 µM throughout.

With `Cn1cc(NC(=O)c2cccc([C@@H]3C[C@H]3NCC3CC3)c2)cn1` (relative stereo) [Example 59, 3-(trans-2-((cyclopropylmethyl)amino)cyclopropyl)-N-(1-methyl-1H-pyrazol-4-yl)benzamide dihydrochloride], the IC50 in assay [1] and in assay [2] was above 10 µM each time.

For `O=C(c1cccc([C@@H]2C[C@H]2NCC2CC2)c1)N1Cc2ccccc2C1` (relative stereo) [Example 113, (3-(trans-2-((cyclopropylmethyl)amino)cyclopropyl)phenyl) (1,3-dihydro-2H-isoindol-2-yl)methanone trifluoroacetate], the IC50 (commonly the concentration needed to halve the response being measured) is 2.9 µM in assay [1] and above 10 µM in assay [2].

`Cc1nnc(NC(=O)c2cc(F)ccc2[C@@H]2C[C@H]2NC2CCN(C3CC3)CC2)s1` (relative stereo) [Example 273, 2-(trans-2-((1-cyclopropylpiperidin-4-yl)amino)cyclopropyl)-5-fluoro-N-(5-methyl-1,3,4-thiadiazol-2-yl)benzamide dihydrochloride]: the IC50 in assay [1] and in assay [2] was above 10 µM in each case.

Turning to `Cc1ccc(C(=O)Nc2cnn(C)c2)cc1[C@@H]1C[C@H]1NC1CCCC1` (relative stereo) [Example 239, 3-(trans-2-(cyclopentylamino)cyclopropyl)-4-methyl-N-(1-methyl-1H-pyrazol-4-yl)benzamide hydrochloride], the IC50 in assay [1] and in assay [2] was above 10 µM each time.

Turning to `Cc1nn(C)cc1NC(=O)c1cccc([C@@H]2C[C@H]2NC2CCC(F)(F)CC2)c1` (relative stereo) [Example 242, 3-(trans-2-((4,4-difluorocyclohexyl)amino)cyclopropyl)-N-(1,3-dimethyl-1H-pyrazol-4-yl)benzamide dihydrochloride], the IC50 in assay [1] and in assay [2] was above 10 µM throughout.

Regarding `O=C(Nc1cnn(CC2CC2)c1)c1cccc([C@@H]2C[C@H]2NC2CCN(CC(F)(F)F)CC2)c1` (relative stereo) [Example 203, N-(1-(cyclopropylmethyl)-1H-pyrazol-4-yl)-3-(trans-2-((1-(2,2,2-trifluoroethyl)piperidin-4-yl)amino)cyclopropyl) benzamide trihydrochloride], the IC50 in assay [1] and in assay [2] was above 10 µM each time.

Take `Cc1ccc(C(=O)Nc2cnn(C)c2)cc1[C@@H]1C[C@H]1NCC1CC1` (relative stereo) [Example 236, 3-(trans-2-((cyclopropylmethyl)amino)cyclopropyl)-4-methyl-N-(1-methyl-1H-pyrazol-4-yl)benzamide dihydrochloride]: the IC50 in assay [1] and in assay [2] was above 10 µM in each case.

Turning to `O=C(Nc1nc(O)c2c(n1)CCCC2)c1cccc([C@@H]2C[C@H]2NCC2CC2)c1` (relative stereo) [Example 150, 3-(trans-2-((cyclopropylmethyl)amino)cyclopropyl)-N-(4-hydroxy-5,6,7,8-tetrahydroquinazolin-2-yl)benzamide trifluoroacetate], the IC50 in assay [1] and in assay [2] was above 10 µM each time.

In the case of `O=C(Nc1ccc2[nH]cnc2c1)c1cccc([C@@H]2C[C@H]2NCC2CC2)c1` (relative stereo) [Example 145, N-(1H-benzimidazol-5-yl)-3-(trans-2-((cyclopropylmethyl)amino)cyclopropyl)benzamide bis(trifluoroacetate)], the IC50 in assay [1] and in assay [2] was above 10 µM in each case.

Consider `O=C(Nc1ccc(-c2ncccn2)cc1)c1cccc([C@@H]2C[C@H]2NC2CCS(=O)(=O)CC2)c1` (relative stereo) [Example 193, 3-(trans-2-((1,1-dioxidotetrahydro-2H-thiopyran-4-yl)amino)cyclopropyl)-N-(4-(pyrimidin-2-yl)phenyl)benzamide dihydrochloride], for which the IC50 in assay [1] and in assay [2] was above 10 µM in each case.

In the case of `CCn1cc(NC(=O)c2cccc([C@@H]3C[C@H]3NC3CCC(F)(F)CC3)c2)cn1` (relative stereo) [Example 209, 3-(trans-2-((4,4-difluorocyclohexyl)amino)cyclopropyl)-N-(1-ethyl-1H-pyrazol-4-yl)benzamide dihydrochloride], the IC50 in assay [1] and in assay [2] was above 10 µM in each case.

For the compound `Cc1cc(NC(=O)c2cccc([C@@H]3C[C@H]3NCC3CC3)c2)n(C)n1` (relative stereo) [Example 107, 3-(trans-2-((cyclopropylmethyl)amino)cyclopropyl)-N-(1,3-dimethyl-1H-pyrazol-5-yl)benzamide dihydrochloride], the IC50 in assay [1] and in assay [2] was above 10 µM throughout.

Turning to `Cn1cc(NC(=O)c2cccc([C@@H]3C[C@H]3N(C3CCC3)C3CCC3)c2)cn1` (relative stereo) [Example 170, 3-(trans-2-(dicyclobutylamino)cyclopropyl)-N-(1-methyl-1H-pyrazol-4-yl)benzamide dihydrochloride], the IC50 in assay [1] and in assay [2] was above 10 µM throughout.

`O=C(NC1CCCC1)c1cc([C@@H]2C[C@H]2NC2CCOCC2)ccc1F` (relative stereo) [Example 213, N-cyclopentyl-2-fluoro-5-(trans-2-(tetrahydro-2H-pyran-4-ylamino)cyclopropyl)benzamide hydrochloride]: the IC50 in assay [1] and in assay [2] was above 10 µM throughout.

For `CC(C)(C)CN[C@@H]1C[C@H]1c1cccc(C(=O)NC2CCOCC2)c1` (relative stereo) [Example 153, 3-(trans-2-((2,2-dimethylpropyl)amino)cyclopropyl)-N-(tetrahydro-2H-pyran-4-yl)benzamide hydrochloride], the IC50 in assay [1] and in assay [2] was above 10 µM in each case.

Turning to `O=C(NCC1CC(F)(F)C1)c1cccc([C@@H]2C[C@H]2NCC2CC2)c1` (relative stereo) [Example 116, 3-(trans-2-((cyclopropylmethyl)amino)cyclopropyl)-N-((3,3-difluorocyclobutyl)methyl) benzamide trifluoroacetate], the IC50 in assay [1] and in assay [2] was above 10 µM each time.

`CC(C)(C)n1cc(NC(=O)c2cccc([C@@H]3C[C@H]3NC3CCN(C4CC4)CC3)c2)cn1` (relative stereo) [Example 195, N-(1-tert-butyl-1H-pyrazol-4-yl)-3-(trans-2-((1-cyclopropylpiperidin-4-yl)amino)cyclopropyl)benzamide dihydrochloride]: the IC50 in assay [1] and in assay [2] was above 10 µM each time.

As to `CC(C)(C)CN[C@@H]1C[C@H]1c1cccc(C(=O)Nc2cnn(C(C)(C)C)c2)c1` (relative stereo) [Example 88, N-(1-tert-butyl-1H-pyrazol-4-yl)-3-(trans-2-((2,2-dimethylpropyl)amino)cyclopropyl)benzamide dihydrochloride], the IC50 in assay [1] and in assay [2] was above 10 µM in each case.

On to `COc1ccc([C@@H]2C[C@H]2NC2CCOCC2)cc1C(=O)NC1CCCC1` (relative stereo) [Example 214, N-cyclopentyl-2-methoxy-5-(trans-2-(tetrahydro-2H-pyran-4-ylamino)cyclopropyl)benzamide hydrochloride], for which the IC50 in assay [1] and in assay [2] was above 10 µM each time.

As for `O=C(Nc1ccccc1F)c1cccc([C@@H]2C[C@H]2NCC2CC2)c1` (relative stereo) [Example 121, 3-(trans-2-((cyclopropylmethyl)amino)cyclopropyl)-N-(2-fluorophenyl) benzamide trifluoroacetate], the IC50 in assay [1] and in assay [2] was above 10 µM throughout.

On to `O=C(Nc1ccc2c(c1)nc1n2CCCCC1)c1cccc([C@@H]2C[C@H]2NCC2CC2)c1` (relative stereo) [Example 148, 3-(trans-2-((cyclopropylmethyl)amino)cyclopropyl)-N-(7,8,9,10-tetrahydro-6H-azepino[1,2-a]benzimidazol-3-yl)benzamide bis(trifluoroacetate)], for which the IC50 in assay [1] and in assay [2] was above 10 µM in each case.

As for `O=C(NC1CCN(Cc2ccccc2)CC1)c1cccc([C@@H]2C[C@H]2NCC2CC2)c1` (relative stereo) [Example 119, N-(1-benzylpiperidin-4-yl)-3-(trans-2-((cyclopropylmethyl)amino)cyclopropyl)benzamide bis (trifluoroacetate)], the IC50 in assay [1] and in assay [2] was above 10 µM throughout.

As for `CC(C)(C)n1cc(NC(=O)c2cccc([C@@H]3C[C@H]3N)c2)cn1` (relative stereo) [Example 65, 3-(trans-2-aminocyclopropyl)-N-(1-tert-butyl-1H-pyrazol-4-yl)benzamide dihydrochloride], the IC50 in assay [1] and in assay [2] was above 10 µM in each case.

As to `N[C@@H]1C[C@H]1c1ccc(F)c(C(=O)NC2CCCC2)c1` (relative stereo) [Example 75, 5-(trans-2-aminocyclopropyl)-N-cyclopentyl-2-fluorobenzamide hydrochloride], the IC50 in assay [1] was 8.4 µM; in assay [2], above 10 µM.

As to `O=C(Nc1ccc(N2CCOCC2)cc1)c1cccc([C@@H]2C[C@H]2NCC2CC2)c1` (relative stereo) [Example 125, 3-(trans-2-((cyclopropylmethyl)amino)cyclopropyl)-N-(4-(morpholin-4-yl)phenyl)benzamide bis(trifluoroacetate)], the IC50 in assay [1] and in assay [2] was above 10 µM each time.
